This note sets out measurements from patent US20030125352A1, “Therapeutic tropane compounds” (priority 2001, published 2003).

By UniProt entry, the sequences of proteins in these tests, tags left out.
UniProt Q9GJT6, whole entry: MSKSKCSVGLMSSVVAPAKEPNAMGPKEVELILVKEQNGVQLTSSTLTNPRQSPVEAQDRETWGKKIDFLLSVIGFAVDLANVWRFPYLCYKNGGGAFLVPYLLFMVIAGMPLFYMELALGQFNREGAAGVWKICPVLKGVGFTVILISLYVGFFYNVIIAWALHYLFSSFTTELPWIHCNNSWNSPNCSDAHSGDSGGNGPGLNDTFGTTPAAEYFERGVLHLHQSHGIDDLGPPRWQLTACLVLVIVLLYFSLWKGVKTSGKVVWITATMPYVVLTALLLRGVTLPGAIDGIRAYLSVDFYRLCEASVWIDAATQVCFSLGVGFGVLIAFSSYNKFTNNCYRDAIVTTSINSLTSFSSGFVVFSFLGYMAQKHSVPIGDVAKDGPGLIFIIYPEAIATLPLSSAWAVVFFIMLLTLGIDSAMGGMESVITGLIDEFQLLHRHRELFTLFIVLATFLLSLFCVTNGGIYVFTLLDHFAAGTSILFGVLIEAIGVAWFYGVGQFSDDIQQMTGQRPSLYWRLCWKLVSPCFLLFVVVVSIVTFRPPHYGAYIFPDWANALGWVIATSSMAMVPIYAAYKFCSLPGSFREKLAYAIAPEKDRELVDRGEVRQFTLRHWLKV

SMILES strings stand for the structures.

This assay has as its target dopamine transporter (Macaca fascicularis, UniProt Q9GJT6). In words: Dopamine transporter assay: inhibition of {3H}WIN 35,428 binding in caudate-putamen membranes. More on the design: species or system rhesus or cynomolgus monkey. The conditions noted are these: read-out: IC50 (nM) DAT, Table 1, monkey caudate-putamen.

With `COC(=O)C1C(c2ccc(Cl)c(Cl)c2)CC2C(O)CC1N2C` (centres unmarked), the IC50 (usually the concentration needed to halve the response being measured) was found to be 33.2 nM.

On to `COC(=O)C1C(c2ccc(Cl)c(Cl)c2)CC2CC(O)C1N2C` (centres unmarked), for which the IC50 stood at 3.04 nM.
